Laboratory results from patent US8728439B2, “System and method for indirectly measuring calcium ion efflux” (Celtrast LLC, priority 2008, dated 2014).

Tests used:
[1] = Blood Mn concentration by elemental analysis (ICP-MS); details: control group, MnCl2 alone; t=5±1.8 hrs post-MnCl2 infusion
[2] = Absolute Mn content in heart tissue by ICP-MS; type: in vivo, C57Bl/6 mice; details: control group, MnCl2 alone
Method: As previously stated, all mice were anesthetized during the experimental procedures: contrast agent infusion, drug administration, and imaging sessions. The mice were allowed to recover between procedures so as to […] the time each mouse was under anesthesia to 2.5 hours, which was then followed by a recovery period of at least 2.5 hours. This protocol minimized any physiological effects caused by the anesthesia; imaging time points selected for each mouse followed these guidelines. In addition, efforts were made to alter the time interval between successive data points so as not to bias the results with potential anesthesia effects. […] A subgroup of randomly selected animals (n=16) was sacrificed immediately after imaging to measure absolute Mn content in heart tissue (n=14) and blood samples (n=6) by inductively coupled plasma-mass spectrometry (ICP-MS) analysis ([…] Ltd., North Vancouver, BC, Canada). The samples were harvested approximately one hour after the initiation of the final T1-map. This time delay was due to the length of time required to acquire the T1-map, and the time required to harvest the samples, and remained constant for all of the samples. […] No statistically significant differences between the groups were found following linear least-square fitting to the data. […]

[3] = Heart rate post-MnCl2 infusion; details: control group, MnCl2 alone
NCX = NCX (Mus musculus, UniProt P70414); test: MEMRI T1-mapping of LV Wall ΔR1 washout (Mn2+ efflux) after MnCl2 infusion, with or without NCX inhibitor; details: control group
[4] = single MnCl2 dose of 190±2 nmoles/g total body weight; cited from earlier work
[5] = MnCl2 alone, fit excluding data for t<1 hour

manganese chloride [MnCl2]
blood Mn concentration [1]: 0.19 ± 0.05 mg/mL | absolute cardiac Mn concentration ([2]; 2 hour time point): 20.9 ± 9.7 µg/g | absolute cardiac Mn concentration ([2]; 4 hours post-MnCl2 infusion): approximately 11.9±0.3 μg/g | average post-MnCl2 infusion heart rate [3]: 456±30 bpm | ΔR1,0 (NCX; 190 nmoles/g BW MnCl2 alone, fit to all data points): 3.4 ± 0.3 s⁻¹ | LV Wall ΔR1 half-life (NCX; 190 nmoles/g BW MnCl2 i.v. alone, fit to all data points): 3.4 ± 0.6 h and 3.4 h | average LV Wall ΔR1 (NCX; MnCl2 alone, 4.9-5.9 hours post-MnCl2 infusion): 1.27 ± 0.28 s⁻¹ | LV Wall ΔR1 half-life (NCX; [5]): 3.2 ± 0.5 h | ΔR1,0 (NCX; [5]): 3.5 ± 0.8 s⁻¹ | cardiotoxic effects [4]: not to cause cardiotoxic effects

Values joined by “and” are separate entries in the source; they are usually repeats but may differ in a detail not shown here. Equal values may be shown once.
